Source: patent US8324211B2, “Inhibitors of bruton's tyrosine kinase” (Roche Palo Alto LLC, priority 2008, dated 2012)

Protein sequences, listed by entry. Tags and fused reporters are not part of them.
UniProt Q06187, whole entry: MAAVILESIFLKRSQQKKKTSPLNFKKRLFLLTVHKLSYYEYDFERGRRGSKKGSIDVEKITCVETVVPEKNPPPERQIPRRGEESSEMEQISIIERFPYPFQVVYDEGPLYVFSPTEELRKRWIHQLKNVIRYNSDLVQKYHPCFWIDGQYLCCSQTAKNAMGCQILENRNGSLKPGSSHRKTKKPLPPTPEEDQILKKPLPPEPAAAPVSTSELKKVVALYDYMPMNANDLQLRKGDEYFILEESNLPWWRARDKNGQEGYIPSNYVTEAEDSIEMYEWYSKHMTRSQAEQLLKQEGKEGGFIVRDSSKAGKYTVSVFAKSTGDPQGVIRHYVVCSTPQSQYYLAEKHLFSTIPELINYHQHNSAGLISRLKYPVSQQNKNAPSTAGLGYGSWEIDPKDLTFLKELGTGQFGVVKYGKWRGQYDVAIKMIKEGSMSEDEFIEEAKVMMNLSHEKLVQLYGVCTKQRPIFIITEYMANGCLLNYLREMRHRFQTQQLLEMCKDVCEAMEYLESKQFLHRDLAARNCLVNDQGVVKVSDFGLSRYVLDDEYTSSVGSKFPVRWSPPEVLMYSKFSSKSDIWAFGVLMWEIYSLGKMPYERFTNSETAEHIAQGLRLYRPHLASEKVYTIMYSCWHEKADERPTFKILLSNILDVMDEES

Target: Btk enzyme (His-tagged, full-length) (Homo sapiens, UniProt Q06187)
Assay: Bruton's Tyrosine Kinase (Btk) Inhibition Assay (33P filtration capture)
Conditions: read-out: Btk inhibition IC50; 100 μM ATP, 30 μM peptide substrate, 30 min at 30° C.
From the text: Bruton's Tyrosine Kinase (Btk) Inhibition Assay
The assay is a capture of radioactive ^33P phosphorylated product through filtration. The interactions of Btk, biotinylated SH2 peptide substrate (Src homology), and ATP lead to phosphorylation of the peptide substrate. Biotinylated product is bound streptavidin sepharose beads. All bound, radiolabeled products are detected by scintillation counter.
Plates assayed are 96-well polypropylene (Greiner) and 96-well 1.2 μm hydrophilic PVDF filter plates (Millipore). Concentrations reported here are final assay concentrations: 10-100 μM compounds in DMSO (Burdick and Jackson), 5-10 nM Btk enzyme (His-tagged, full-length), 30 μM peptide substrate (Biotin-Aca-AAAEEIYGEI-NH2), 100 μM ATP (Sigma), 8 mM imidazole (Sigma, pH 7.2), 8 mM glycerol-2-phosphate (Sigma), 200 μM EGTA (Roche Diagnostics), 1 mM MnCl2 (Sigma), 20 mM MgCl2 (Sigma), 0.1 mg/ml BSA (Sigma), 2 mM DTT (Sigma), 1 μCi^33P ATP (Amersham), 20% streptavidin sepharose beads (Amersham), 50 mM EDTA (Gibco), 2 M NaCl (Gibco), 2 M NaCl w/1% phosphoric acid (Gibco), microscint-20 (Perkin Elmer).
IC50 determinations are calculated from 10 data points per compound utilizing data produced from a standard 96-well plate assay template. […] Background was counted in the absence of peptide substrate. Total activity was determined in the presence of peptide substrate. […]

CN(C)c1ccc2c(c1)CCN(c1cccc(-c3cc(Nc4ccn(C)n4)c4nccn4c3)c1CO)C2=O
IC50: 13 nM
